Source: publication PMC2443153 (BMC Biochemistry, 2008)

Details: in water
From the text: All cyclic nucleotides, as well as the free Pharos chromophore were derived from Biolog Life Science Institute (Bremen, Germany). […] Nucleotides were detected at λ = 280 nm.

With “8-[Pharos-575]adenosine -3',5'-cyclic monophosphate [8-[ϕ-575]-cAMP]” the solubility was “approximately 50 mM”.
